{"source": "patent US12343326B2", "about": "“Psychoactive medicines and their use for treating psychiatric and neurological conditions and disorders” (Transcend Therapeutics, Inc., priority 2021, dated 2025)", "key": {"[1]": {"system": "168 GPCRs", "assay": "β-arrestin based GPCR screen (PathHunter / GPCRmax), agonist mode", "format": "cell-based", "details": "1 or 10 mM"}, "[2]": {"system": "168 GPCRs", "assay": "β-arrestin based GPCR screen (PathHunter / GPCRmax), antagonist mode", "details": "1 or 10 mM"}}, "data": [{"smiles": "CNC(C)C(=O)c1ccc2c(c1)OCO2", "note": "(centres unmarked) [methylone, 3,4-methylenedioxy-N-methylcathinone]", "values": [{"measurement": "agonist activity in GPCRmax screen of 168 GPCRs", "setting": "[1]", "result": "no significant agonist activity"}, {"measurement": "antagonist activity in GPCRmax screen of 168 GPCRs", "setting": "[2]", "result": "No antagonist activity was detected"}]}]}
